Data from patent US6800633B2, “Pyrrolo[2,3d]pyrimidine compositions and their use” (OSI Pharmaceuticals, Inc., priority 1998, dated 2004).

Biological target: T1, A2a receptor (Homo sapiens, UniProt P29274)
T1 construct: expressed in transfected cells; host or cells: Saccharomyces cerevisiae (CY8342-derived strains with rat Gαs mutants, e.g. CY8362 with GαsE10K)
Assay: Yeast-based A2a receptor assay (antagonist specificity)
Type: cell-based

SMILES: CCCn1c(=O)c2[nH]c(C3CCCC3)nc2n(CCC)c1=O
- A2a receptor antagonist activity in yeast-based assay: relatively inert
